# Measurements reported in DBAASP.
# System: Staphylococcus aureus ATCC 12600
# Test: ≥ marks a high value that may be exact or a test limit, other limits are often not marked, values filed in µg/mL are converted to µM
structure (smiles),measurement,value
CC(C)C[C@H](NC(=O)[C@H](CC(C)C)NC(=O)[C@H](CC(N)=O)NC(=O)[C@H](CCC(=O)O)NC(=O)[C@H](CC(N)=O)NC(=O)[C@H](CC(C)C)NC(=O)[C@@H](N)C(C)C)C(=O)N[C@@H](CCCN=C(N)N)C(=O)O [VLNENLLR],MIC,≥ 128 µM
